Results on three compounds are retold here after patent US20090131503A1, “3,5 - SUBSTITUTED INDOLE COMPOUNDS HAVING NOS AND NOREPINEPHRINE REUPTAKE INHIBITORY ACTIVITY” (priority 2007, published 2009).

Assay [1] concerns the target T1, Nitric oxide synthase (neuronal, human recombinant) nNOS (Homo sapiens, UniProt P29475).
T1 construct: purchased Axxora LLC ALX-201-068
Description: nNOS (human) enzyme assay, [3H]-L-arginine to L-citrulline conversion. It is filed as biochemical. As to conditions: Table 3.

Assay [2] has as its target T2, Nitric oxide synthase (endothelial, human recombinant) eNOS (Homo sapiens, UniProt P29474).
T2 construct: purchased Axxora LLC ALX-201-070
Description: eNOS (human) enzyme assay, [3H]-L-arginine to L-citrulline conversion. It is filed as biochemical.

`CCNC1CCCC(c2c[nH]c3ccc(NC(=N)c4cccs4)cc23)C1` (racemic) [(±)-9, N-(3-(3-(ethylamino)cyclohexyl)-1H-indol-5-yl)thiophene-2-carboximidamide]: the values for the IC50 in assay [1] and in assay [2] (Table 3) were 0.264 µM and 10.8 µM, respectively.
Taken in the same sequence, the figures for `CCNC1CCCC(c2c[nH]c3ccc(NC(=N)c4cccs4)cc23)C1` (racemic) [(±)-10, N-(3-(3-(ethylamino)cyclohexyl)-1H-indol-5-yl)thiophene-2-carboximidamide] were 0.735 µM and 31.8 µM.
As to `CN[C@H]1CC[C@@H](c2c[nH]c3ccc(NC(=N)c4cccs4)cc32)CC1` [Compound 1a, N-(3-(4-(Methylamino)cyclohexyl)-1H-indol-5-yl)thiophene-2-carboximidamide], the concentration for half-maximal inhibition (IC50) in assay [2] (Table 2, compounds tested as hydrochloride salts) was determined as 25.4 µM.

For orientation: IC50 means the midpoint of a concentration-inhibition curve.
